In PubChem BioAssay AID2780 (Johns Hopkins Ion Channel Center, 2010):
The entries are a selection whose mix differs from that of the whole data set. The source made the active and inactive calls.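 The calls were made as follows: active = membrane potential signal shifting up or down by more than 3 SD of buffer-only wells, on both duplicate plates; inactive = the rest.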

Test: nonspecific voltage dye signal in HEK293 – cell-based, parental HEK293, counter-screen for TRPC6 inhibitor project, confirmation (AID 2780);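 as to membrane potential signal change: plate controls were buffer EC0 wells for no effect and acetylcholine ECmax wells for full effect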
Conditions: parental HEK293 membrane potential dye fluorescence; at 10 µM

CCC(CO)(C(=O)OC1CN2CCC1CC2)c1ccccc1 (configuration not stated)
outcome: inactive

O=C(OC1CN2CCC1CC2)C1c2ccccc2Oc2ccccc21 (configuration not stated)
membrane potential signal change: active: 6.87%
